Values joined by “and” are separate entries in the source; they are usually repeats but may differ in a detail not shown here. Equal entries are not always repeated.
Columns and labels:
Interstitial collagenase = target: T1, Interstitial collagenase (Homo sapiens, UniProt P03956); assay: In vitro inhibition of Matrix metalloprotease-1.
T1 sequence (P03956 whole entry): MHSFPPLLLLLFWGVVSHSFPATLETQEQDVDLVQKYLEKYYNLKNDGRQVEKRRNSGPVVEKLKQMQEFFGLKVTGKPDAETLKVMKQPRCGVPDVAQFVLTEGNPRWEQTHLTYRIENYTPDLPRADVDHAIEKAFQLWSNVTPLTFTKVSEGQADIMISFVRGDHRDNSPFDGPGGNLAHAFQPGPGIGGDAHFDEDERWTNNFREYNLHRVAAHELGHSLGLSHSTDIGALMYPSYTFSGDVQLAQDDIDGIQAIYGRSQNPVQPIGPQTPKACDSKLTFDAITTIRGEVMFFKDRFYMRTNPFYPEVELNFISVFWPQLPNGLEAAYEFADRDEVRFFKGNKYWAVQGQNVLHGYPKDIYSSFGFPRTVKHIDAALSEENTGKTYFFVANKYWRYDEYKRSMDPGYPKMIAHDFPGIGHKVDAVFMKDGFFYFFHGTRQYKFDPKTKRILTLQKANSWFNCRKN

The chains behind the UniProt entries cited, without tags or fusion partners. Where a name states a change or a piece, a line headed by the entry shows the natural chain unless it says otherwise.
UniProt P14780: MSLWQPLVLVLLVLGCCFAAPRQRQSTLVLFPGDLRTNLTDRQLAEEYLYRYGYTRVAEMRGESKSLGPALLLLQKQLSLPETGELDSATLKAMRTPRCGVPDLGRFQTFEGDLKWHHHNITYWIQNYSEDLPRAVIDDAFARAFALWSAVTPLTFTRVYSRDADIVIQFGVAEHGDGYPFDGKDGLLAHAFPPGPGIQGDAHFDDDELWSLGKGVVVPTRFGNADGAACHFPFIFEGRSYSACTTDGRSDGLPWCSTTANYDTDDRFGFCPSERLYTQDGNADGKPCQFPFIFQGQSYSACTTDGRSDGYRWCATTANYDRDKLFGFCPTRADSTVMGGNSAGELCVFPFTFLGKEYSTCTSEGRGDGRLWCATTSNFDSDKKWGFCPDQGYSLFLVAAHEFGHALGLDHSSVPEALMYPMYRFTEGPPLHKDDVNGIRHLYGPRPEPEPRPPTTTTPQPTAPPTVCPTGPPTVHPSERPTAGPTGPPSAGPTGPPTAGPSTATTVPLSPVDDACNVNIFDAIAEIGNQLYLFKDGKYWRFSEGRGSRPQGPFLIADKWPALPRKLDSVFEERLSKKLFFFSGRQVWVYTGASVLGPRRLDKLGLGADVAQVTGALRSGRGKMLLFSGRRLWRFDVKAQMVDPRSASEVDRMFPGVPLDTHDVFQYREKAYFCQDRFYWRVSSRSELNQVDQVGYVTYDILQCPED

[1] = target: Matrix metalloproteinase-9 (Homo sapiens, UniProt P14780); assay: In vitro inhibition of Matrix metalloprotease-9.

COc1ccc(S(=O)(=O)N(CC#CCN2CCN(C)CC2)c2c(C)cc(Br)cc2C(=O)NO)cc1
IC50 (Interstitial collagenase): 129 nM

COc1ccc(S(=O)(=O)N(Cc2cccnc2)c2c(C)cccc2C(=O)NO)cc1
IC50 [1]: 7 nM and 8 nM
